From US6815440B2, “Cyclic and heterocyclic N-substituted α-iminohydroxamic and -carboxylic acids” (Aventis Pharma Deutschland GmbH, priority 1995, dated 2004)

By UniProt entry, the sequences of proteins in these tests, tags left out. Residues count along the entry.
UniProt P22894, 100-262 limits assumed: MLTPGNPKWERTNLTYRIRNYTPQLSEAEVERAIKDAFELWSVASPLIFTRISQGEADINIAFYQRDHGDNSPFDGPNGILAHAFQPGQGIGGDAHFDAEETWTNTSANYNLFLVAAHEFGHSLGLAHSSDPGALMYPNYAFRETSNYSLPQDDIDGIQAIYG

Target: T1, catalytic domain of neutrophil collagenase (Homo sapiens, UniProt P22894)
T1 construct: enzymatic activity of the catalytic domains of human stomelysine and of neutrophil collagenase; made in house
Test: Enzyme inhibition, catalytic domain of neutrophil collagenase (fluorogenic substrate)
Assay type: biochemical
Details: hydroxamic acids up to and including Example 33; tris/HCl buffer pH=7.5; read-out: Neutrophil collagenase IC 50
Procedure: Preparation and determination of the enzymatic activity of the catalytic domains of human stomelysine and of neutrophil collagenase.
The two enzymes were prepared according to Ye et al., (Biochemistry 31 (1992) 11231-5). To measure the enzyme activity or enzyme inhibitor action, 70 μl of buffer solution and 10 μl of enzyme solution are incubated for 15 minutes with 10 μl of a 10% strength (v/v) aqueous dimethyl sulfoxide solution, which optionally contains the enzyme inhibitor. After addition of 10 μl of a 10% strength (v/v) aqueous dimethyl sulfoxide solution which contains 1 mmol/l of the substrate, the enzyme reaction is monitored by fluorescence spectroscopy (328 nm (ex)/393 nm(em)). The enzyme activity is shown as extinction increase/minute. […] The buffer solution contains 0.05% of Brij (Sigma, Deisenhofen, Germany) and also 0.1 mol/l of tris/HCl, 0.1 mol/l of NaCl, 0.01 mol/l of CaCl2 (pH=7.5) for the determination of the hydroxamic acids up to and including Example 33, or, for the determination of the carboxylic acids from Example 34, 0.1 mol/l of piperazine-N,N′-bis[2-ethanesulfonic acid] pH=6.5.
The enzyme solution contains 5 μg/ml of one of the enzyme domains prepared according to Ye et al. The substrate solution contains 1 mmol/l of the fluorogenic substrate (7-methoxycoumarin-4-yl)acetyl-Pro-Leu-Gly-Leu-3-(2′,4′-dinitrophenyl)-L-2,3-diaminopropionyl-Ala-Arg-NH2 (Bachem, Heidelberg, Germany).

| IC50 | Compound |
| --- | --- |
| 20 nM | O=C(NO)C1Cc2ccccc2CN1S(=O)(=O)CCc1ccccc1 (stereo not shown) [Example 17] |
| 300 nM | CCOC(=O)Nc1cccc(S(=O)(=O)N2Cc3ccccc3CC2C(=O)NO)c1 (stereo not shown) [Example 5] |
| 7 nM | O=C(NO)[C@H]1Cc2c([nH]c3ccccc23)CN1S(=O)(=O)c1ccc(Oc2ccccc2)cc1 [Example 32, R-2-(4-phenoxybenzenesulfonyl)-1,2,3,4-tetrahydro-9H-pyrido(3,4-b)-indole-3-hydroxamic acid] |
| 20 nM | O=C(NO)C1Cc2ccccc2CN1S(=O)(=O)c1ccccc1 (stereo not shown) [Example 1] |
